Laboratory results: PubChem BioAssay (NCI)
Values joined by “and” are separate entries in the source; they are usually repeats but may differ in a detail not shown here. Equal values may be shown once. This is a selection; strong and weak results do not stand in their true shares.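 Values shown are percent growth following 48 h exposure of cells in 96-well plates to a single concentration of compound; below 10 was considered active.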 Active and inactive are the calls of the source.

Experiments:
Assay in all cases: NCI-60 one-dose screen, 48 h (100 = growth as untreated, 0 = no growth, -100 = all killed)
Conditions in all cases: 10 µM
NCI-H23 lung = test system: NCI-H23 lung
NCI-H226 lung = test system: NCI-H226 lung
NCI-H322M lung = test system: NCI-H322M lung
NCI-H460 lung = test system: NCI-H460 lung
HOP-92 NSCLC = test system: HOP-92 NSCLC
NCI-H522 lung = test system: NCI-H522 lung
A549/ATCC NSCLC = test system: A549/ATCC NSCLC
786-0 renal = test system: 786-0 renal
COLO 205 colon = test system: COLO 205 colon
DU-145 prostate = test system: DU-145 prostate
K-562 leukemia = test system: K-562 leukemia
MALME-3M melanoma = test system: MALME-3M melanoma
MDA-MB-231 breast = test system: MDA-MB-231 breast
RXF 393 renal = test system: RXF 393 renal
SF-268 CNS = test system: SF-268 CNS
SF-295 CNS = test system: SF-295 CNS
SF-539 CNS = test system: SF-539 CNS
UACC-257 melanoma = test system: UACC-257 melanoma
M14 melanoma = test system: M14 melanoma
HOP-62 NSCLC = test system: HOP-62 NSCLC

Row | Structure (SMILES) | growth (NCI-H23 lung) | growth (NCI-H226 lung) | growth (NCI-H322M lung) | growth (NCI-H460 lung) | growth (HOP-92 NSCLC) | growth (NCI-H522 lung) | growth (A549/ATCC NSCLC) | growth (786-0 renal) | growth (COLO 205 colon) | growth (DU-145 prostate) | growth (K-562 leukemia) | growth (MALME-3M melanoma) | growth (MDA-MB-231 breast) | growth (RXF 393 renal) | growth (SF-268 CNS) | growth (SF-295 CNS) | growth (SF-539 CNS) | growth (UACC-257 melanoma) | growth (M14 melanoma) | growth (HOP-62 NSCLC)
1 | O=[N+]([O-])c1cc([N+](=O)[O-])c(O)c([N+](=O)[O-])c1.c1ccc(Cc2ccncc2)cc1 | inactive: 106% | inactive: 91.7% | inactive: 110% | inactive: 103% | inactive: 79.4% | inactive: 100% | inactive: 98.6% | inactive: 104% | inactive: 102% | inactive: 108% | inactive: 99% | inactive: 114% | inactive: 106% | inactive: 100% | inactive: 95.8% | inactive: 94.6% | inactive: 91.7% | inactive: 96.9% | inactive: 106% | –
2 | O=[N+]([O-])c1ccc(Oc2c([N+](=O)[O-])cc([N+](=O)[O-])cc2[N+](=O)[O-])cc1 | inactive: 98.2% | inactive: 98.5% | inactive: 98.3% | inactive: 107% | – | inactive: 99.1% | inactive: 105% | inactive: 105% | inactive: 116% | inactive: 104% | inactive: 104% | inactive: 104% | inactive: 116% | inactive: 105% | inactive: 101% | inactive: 106% | inactive: 97.5% | inactive: 103% | inactive: 97.4% | inactive: 110%
3 | CN(Cc1cccnc1)C(=O)COc1ccc(Cl)c(Cl)c1.O=[N+]([O-])c1cc([N+](=O)[O-])c(O)c([N+](=O)[O-])c1 | inactive: 98.2% | – | inactive: 109% | inactive: 108% | inactive: 83% | inactive: 89.5% | inactive: 91.9% | inactive: 105% | inactive: 109% | inactive: 113% | inactive: 96.6% | inactive: 99.3% | inactive: 114% | inactive: 92.1% | inactive: 101% | inactive: 85.2% | inactive: 98.6% | inactive: 94.5% | inactive: 104% | inactive: 103%
4 | Cc1c([N+](=O)[O-])c(C)c([N+](=O)[O-])c(Nc2c([N+](=O)[O-])c(C)c([N+](=O)[O-])c(C)c2[N+](=O)[O-])c1[N+](=O)[O-] | active: -25.3% | active: -33.5% | active: -14.3% | active: 8.44% | active: -28% | active: -11.7% | active: 0.302% | active: 2.97% | active: -65.4% | inactive: 39.9% | active: 4.5% | – | active: -37.1% | inactive: 17.3% | inactive: 15.5% | active: -62.1% | inactive: 12.5% | active: -23.9% | active: -17.7% | active: -26.1%
5 | CN(C)CCS | inactive: 98.4% and inactive: 105% | inactive: 95.1% and inactive: 102% | inactive: 128% and inactive: 91.5% | inactive: 121% and inactive: 109% | inactive: 88.2% and inactive: 97.3% | inactive: 109% and inactive: 101% | inactive: 107% and inactive: 89.4% | inactive: 95.2% and inactive: 100% | inactive: 121% and inactive: 102% | inactive: 99.7% and inactive: 115% | inactive: 103% and inactive: 115% | inactive: 114% and inactive: 88.3% | inactive: 105% and inactive: 112% | inactive: 100% and inactive: 101% | inactive: 99.2% and inactive: 111% | – | inactive: 105% and inactive: 99.6% | inactive: 112% and inactive: 91.3% | inactive: 104% and inactive: 99.4% | inactive: 108% and inactive: 103%
6 | O=[N+]([O-])c1cc([N+](=O)[O-])c(NCCO)c([N+](=O)[O-])c1 | inactive: 86.4% | inactive: 87.7% | inactive: 100% | inactive: 96.1% | – | inactive: 27.3% | inactive: 89.7% | inactive: 106% | inactive: 94.8% | inactive: 70.9% | inactive: 62% | inactive: 87.5% | inactive: 93.9% | inactive: 87.7% | inactive: 83.6% | inactive: 87.6% | inactive: 69.9% | inactive: 74.5% | inactive: 94.7% | inactive: 121%
7 | CCOP(=O)(CC)OCC | inactive: 103% | inactive: 98.3% | inactive: 113% | inactive: 101% | inactive: 93.3% | inactive: 114% | inactive: 103% | inactive: 92.1% | inactive: 111% | inactive: 120% | inactive: 107% | – | inactive: 101% | inactive: 99.6% | inactive: 111% | inactive: 96.6% | inactive: 93.5% | inactive: 95.1% | inactive: 102% | inactive: 101%
8 | CP(=O)(OCCCCl)N(CCCl)CCCl (configuration not stated) | inactive: 104% | inactive: 96% | inactive: 110% | inactive: 115% | inactive: 99.3% | inactive: 102% | inactive: 93.7% | inactive: 105% | inactive: 116% | inactive: 115% | inactive: 100% | inactive: 101% | inactive: 111% | inactive: 114% | inactive: 111% | – | inactive: 101% | inactive: 89.7% | inactive: 105% | inactive: 106%
9 | Cc1ccc(Nc2c([N+](=O)[O-])cc([N+](=O)[O-])cc2[N+](=O)[O-])cc1 | inactive: 91% | inactive: 84.5% | inactive: 87.8% | inactive: 91.6% | – | inactive: 43% | inactive: 91.8% | inactive: 106% | inactive: 75% | inactive: 105% | inactive: 62% | inactive: 89.3% | inactive: 74.3% | inactive: 90.3% | inactive: 87.2% | – | inactive: 102% | inactive: 86.7% | inactive: 104% | –
10 | CNc1ccccc1.O=[N+]([O-])c1cc([N+](=O)[O-])c(O)c([N+](=O)[O-])c1 | inactive: 106% | inactive: 97% | inactive: 106% | inactive: 101% | inactive: 105% | inactive: 99.6% | inactive: 96% | inactive: 108% | inactive: 116% | inactive: 119% | inactive: 104% | inactive: 116% | inactive: 96.8% | inactive: 109% | inactive: 120% | – | inactive: 106% | inactive: 86.7% | inactive: 106% | inactive: 106%
11 | O=[N+]([O-])c1cccc([N+](=O)[O-])c1O | inactive: 105% | inactive: 109% | inactive: 115% | inactive: 110% | – | – | inactive: 99.6% | inactive: 107% | inactive: 111% | inactive: 106% | inactive: 95% | inactive: 125% | inactive: 103% | inactive: 113% | inactive: 102% | inactive: 119% | inactive: 106% | inactive: 107% | inactive: 102% | inactive: 100%
12 | O=C1C(O)=C([N+](=O)[O-])C(=O)C(O)=C1[N+](=O)[O-] | inactive: 104% | inactive: 97.4% | inactive: 97.6% | inactive: 107% | inactive: 100% | – | inactive: 100% | inactive: 109% | inactive: 94.1% | inactive: 108% | inactive: 108% | inactive: 98% | inactive: 110% | inactive: 115% | inactive: 99.8% | inactive: 112% | inactive: 98.5% | inactive: 109% | inactive: 108% | inactive: 104%
13 | CP(=S)(Cl)N(CCCl)CCCl (configuration not stated) | inactive: 108% | inactive: 97% | inactive: 100% | inactive: 106% | inactive: 86.8% | inactive: 84.6% | inactive: 93.3% | inactive: 103% | inactive: 121% | inactive: 113% | inactive: 107% | inactive: 109% | inactive: 103% | inactive: 99.6% | inactive: 112% | – | inactive: 90.2% | inactive: 97.3% | inactive: 100% | inactive: 102%
14 | O=[N+]([O-])c1cc([N+](=O)[O-])c(Oc2ccccc2)c([N+](=O)[O-])c1 | inactive: 100% | inactive: 94.4% | inactive: 98% | inactive: 111% | – | inactive: 95% | inactive: 103% | inactive: 106% | inactive: 106% | inactive: 103% | inactive: 92.2% | inactive: 109% | inactive: 106% | inactive: 116% | inactive: 103% | inactive: 91.2% | inactive: 122% | inactive: 99.5% | inactive: 105% | inactive: 102%
15 | n1nc(-c2nn[nH]n2)n[nH]1 | inactive: 105% | inactive: 97.3% | inactive: 107% | inactive: 118% | – | inactive: 83.8% | inactive: 99.2% | inactive: 100% | inactive: 125% | inactive: 135% | inactive: 108% | inactive: 112% | inactive: 98% | inactive: 90.8% | inactive: 123% | inactive: 106% | inactive: 124% | inactive: 101% | inactive: 105% | inactive: 98.9%
